Details: experimental values compiled from the literature

| Compound | logP |
| --- | --- |
| O=[N+]([O-])N1CN([N+](=O)[O-])CN([N+](=O)[O-])C1 | 0.87 |
| C=NNc1ccc([N+](=O)[O-])cc1[N+](=O)[O-] | 2.33 |
